Km and Vmax data for one substance are collected here from patent US12247246B2, “Identification of inhibitors of TcpC and TIR NADase activity” (Washington University, priority 2017, dated 2025).

For this series, the system named is NC(=O)c1ccc[n+]([C@@H]2O[C@H](COP(=O)([O-])OP(=O)(O)OC[C@H]3O[C@@H](n4cnc5c(N)ncnc54)[C@H](O)[C@@H]3O)[C@@H](O)[C@H]2O)c1. Kind of series: purified protein, by the assay type. The settings on record: other: estimated, substrate NAD+, product ADPR, initial velocity/first 60 s, 25° C, pH 7.6.

“Staphylococcus aureus TirS-TIR, wild type TIR domain of TirS, SEQ ID NO:1 (Staphylococcus aureus subsp. aureus MSSA476)”: the Michaelis-Menten constant (Km) – broadly, the substrate concentration at which the rate is half of its maximum – was 490 µM and the Vmax – broadly, the top rate of the reaction or transport when substrate is in excess – was 10 µM/min.
